Data published in ChEMBL document CHEMBL1126861 (J Med Chem, 1993).

Amino acid sequences for entries named in this document (tags omitted).
UniProt P33533, whole entry, looked up: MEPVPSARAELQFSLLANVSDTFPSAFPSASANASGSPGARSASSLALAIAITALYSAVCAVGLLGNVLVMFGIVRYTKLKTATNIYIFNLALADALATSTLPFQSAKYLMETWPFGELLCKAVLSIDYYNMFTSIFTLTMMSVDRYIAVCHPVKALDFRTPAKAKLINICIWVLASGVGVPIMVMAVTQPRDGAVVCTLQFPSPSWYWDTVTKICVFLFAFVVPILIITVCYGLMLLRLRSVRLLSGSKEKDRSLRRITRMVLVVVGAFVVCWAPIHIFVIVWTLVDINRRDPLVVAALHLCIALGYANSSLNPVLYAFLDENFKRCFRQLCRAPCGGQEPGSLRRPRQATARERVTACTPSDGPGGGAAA
UniProt P33535, whole entry, looked up: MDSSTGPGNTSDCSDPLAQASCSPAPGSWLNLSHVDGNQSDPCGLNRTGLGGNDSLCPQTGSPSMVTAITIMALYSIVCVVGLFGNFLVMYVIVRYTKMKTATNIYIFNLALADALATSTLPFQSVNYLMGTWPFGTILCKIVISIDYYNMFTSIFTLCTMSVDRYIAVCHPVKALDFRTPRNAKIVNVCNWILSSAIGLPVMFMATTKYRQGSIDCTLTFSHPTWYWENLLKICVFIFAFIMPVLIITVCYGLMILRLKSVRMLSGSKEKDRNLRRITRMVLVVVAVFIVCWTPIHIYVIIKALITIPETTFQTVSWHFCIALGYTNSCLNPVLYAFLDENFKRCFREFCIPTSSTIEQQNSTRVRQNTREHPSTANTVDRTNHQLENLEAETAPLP

How the values were obtained:
[1] = target: Delta-type opioid receptor (Rattus norvegicus) (UniProt P33533); experiment: Relative potency to that of [Leu5]- enkephalin
[2] = target: Mu-type opioid receptor (Rattus norvegicus) (UniProt P33535); experiment: Relative potency to that of [Leu5]- enkephalin
[3] = target: Delta-type opioid receptor (Rattus norvegicus) (UniProt P33533); experiment: Tested for antagonistic activity against delta Opioid Receptor from mouse vas deferens, using [D-Ala2] Deltorphin 1 as agonist
[4] = target: Delta-type opioid receptor (Rattus norvegicus) (UniProt P33533); experiment: Tested for antagonistic activity against delta opioid receptor from mouse vas deferens, using [Leu5]- enkephalin as agonist
[5] = target: Delta-type opioid receptor (Rattus norvegicus) (UniProt P33533); experiment: Tested for antagonistic activity against delta opioid receptor from mouse vas deferens, using DPDPE as agonist
[6] = target: Delta-type opioid receptor (Rattus norvegicus) (UniProt P33533); experiment: Tested for antagonistic activity against delta opioid receptor from mouse vas deferens, using [D-Ala2] Deltorphin 1 as agonist

SMILES | Potency [1] | Potency [2] | Ke [3] [nM] | Ke [4] [nM] | Ke [5] [nM] | Ke [6] [nM]
Oc1ccc2c3c1O[C@H]1c4[nH]c5ccccc5c4C[C@@]4(O)[C@@H](C2)N(CC2CC2)CC[C@]314 [NALTRINDOLE] | 13.9 |  |  |  |  | 
CC(C)[C@H](NC(=O)[C@H](CC(=O)O)NC(=O)[C@H](Cc1ccccc1)NC(=O)[C@@H](C)NC(=O)[C@@H](N)Cc1ccc(O)cc1)C(=O)N[C@H](C(=O)NCC(N)=O)C(C)C [DELTORPHIN C] | 0.393 | 0.0024 |  |  |  | 
N[C@@H](Cc1ccc(O)cc1)C(=O)N1Cc2ccccc2C[C@H]1C(=O)N[C@@H](Cc1ccccc1)C(=O)O |  |  | 8.23 | 11.7 | 16.1 | 12.6
CC(C)C[C@H](NC(=O)[C@H](Cc1ccccc1)NC(=O)CNC(=O)CNC(=O)[C@@H](N)Cc1ccc(O)cc1)C(=O)O | 1 | 1 |  |  |  | 
